Test results taken from patent US20120129721A1, “URINARY GM2 ACTIVATOR PROTEIN AS A MARKER OF ACUTE RENAL FAILURE OR THE RISK OF DEVELOPING ACUTE RENAL FAILURE” (priority 2009, published 2012).
Like-named read-outs stand apart in the source and are kept apart here.

What was measured:
Wistar rats [1] = experiment: Renal function characterization (plasma creatinine, BUN, urinary protein and NAG excretion) of gentamicin-treated rats; conditions: vs control
Excerpt: (§1) In-house bred, female Wistar rats weighing 190-230 g were divided in the following experimental groups (FIG. 1): (i) Control: rats treated i.p. during 7-13 days with saline (0.9% NaCl), once daily.
(§2) For the whole experiment, rats were individually allocated in metabolic cages under temperature and humidity controlled conditions. Animals were allowed to eat regular chow and drink water ad libitum. At different times, 24-hour urine and blood samples were obtained. Urine was collected in graduated vessels supplemented with 100 μL of 0.1% sodium azide and 1 ml oil to prevent contamination and evaporation, respectively. Subsequently, urine was cleared by centrifugation at 1,175×g, aliquoted and stored at −80° C. Blood was drawn from a small incision in the tail and collected in heparinised capillaries. These were immediately centrifuged at 12,000×g and plasma was stored at −80° C. At the end of the experiment, rats were anesthetized with sodium pentobarbital (10 mg/kg). The kidneys were perfused with heparinised saline through the abdominal aorta, and they were immediately dissected. The right kidney and one half of the left one were swiftly frozen by immersion in liquid nitrogen, and stored at −80° C. Eventually, they were used for Western blot studies. For such a purpose, frozen tissues were homogenized under freezing conditions by hammer-smashing, until a fine powder was obtained. The powder was also kept at −80° C. The second half of the left kidney was immersed in 3.7% paraformaldehyde at 4° C. during 14-16 hours. After it, tissue samples were processed for immunohistochemical studies.
(§3) Plasma and urine concentration of creatinine and blood urea nitrogen (BUN) were determined by an automated analysis system (Reflotron®, Roche Diagnostics, Barcelona, Spain) and commercial reactive strips (Roche Diagnostics, Barcelona, Spain), using 32 μL of plasma and urine. This method has a lower detection limit of 0.5 mg/dL for creatinine. Samples reading under 0.5 mg/dL creatinine were head-to-head re-assayed by the colorimetric method of Jaffe (Hervey, 1953. Nature, 171: 1125).
(§4) Urine protein concentration (mg/mL) was measured by the Bradford method (39). Daily protein excretion (mg/day) was obtained by multiplying urine protein concentration by the 24-hour urine flow (mL/day).
(§5) Urine NAG activity (arbitrary units, AU/mL), as an estimation of urine NAG concentration, was measured by a commercial enzymatic test (Roche Diagnostics, Barcelona, Spain) following the manufacturer's instructions. Urine NAG activity was converted into daily NAG excretion (AU/day) by multiplying urine NAG activity by 24-hour urine flow (mL/day).

Wistar rats [2] = test system: Wistar rats
Excerpt: as §1, §2, §3, §4, §5

Wistar rats [3] = experiment: Time course of markers of nephrotoxicity under gentamicin 150 mg/kg/day; conditions: G-150, after inception of treatment
Excerpt: as §1
as §2, with “The powder was also kept at −80° C. The second half of the left kidney was immersed in 3.7% paraformaldehyde at 4° C. during 14-16 hours. After it, tissue samples were processed for immunohistochemical studies.” left out
as §3, with “This method has a lower detection limit of 0.5 mg/dL for creatinine.” left out
Urine protein concentration (mg/mL) was measured by the Bradford method (39). […]
Urine NAG activity (arbitrary units, AU/mL), as an estimation of urine NAG concentration, was measured by a commercial enzymatic test (Roche Diagnostics, Barcelona, Spain) following the manufacturer's instructions. […]

[4] = test system: GM2 activator protein (GM2AP) in urine; experiment: Urinary GM2AP (Western blot) and renal function in humans treated with gentamicin; format: in vivo; conditions: hospitalized patients under gentamicin regime for 2 or 3 days
Excerpt: Supernatants were collected.
Urine samples from human hospitalized individuals under a gentamicin regime already in course for 2 or 3 days were obtained from the Hospital Universitario de Salamanca. As controls, the urine from age- and sex-matched individuals not receiving gentamicin was used.

[5] = test system: GM2 activator protein (GM2AP) in urine; conditions: single nephrotoxic dose of uranyl nitrate 5 mg/kg, urine 4 days after treatment inception
Excerpt: as §1
For the whole experiment, rats were individually allocated in metabolic cages under temperature and humidity controlled conditions. Animals were allowed to eat regular chow and drink water ad libitum. At different times, 24-hour urine and blood samples were obtained. Urine was collected in graduated vessels supplemented with 100 μL of 0.1% sodium azide and 1 ml oil to prevent contamination and evaporation, respectively. Subsequently, urine was cleared by centrifugation at 1,175×g, aliquoted and stored at −80° C. Blood was drawn from a small incision in the tail and collected in heparinised capillaries. […]
Protein extracts were obtained from 100 mg tissue homogenate powder, prepared by homogenizing the kidneys with a tissue mixer (Ultra-Turrax T8, IKA®-Werwe) at 4° C. in homogenization buffer (140 mM NaCl, 20 mM Tris-HCl pH=7.5, 0.5 Methylenediaminetetraacetic acid—EDTA-, 10% glycerol, 1% Igepal CA-630, 1 μg/mL aprotinin, 1 μg/mL leupeptin, 1 μg/mL pepstatin A, 1 mM phenylmethylsulphonyl fluoride—PMSF-). […] Protein concentration was measured with a commercial kit (BioRad) based on the Lowry method. […]
Protein concentration was determined by the Bradford method.

[6] = single UN 0.5 mg/kg immediately after gentamicin 50 mg/kg/day regime (G-50)
[7] = single UN 0.5 mg/kg only (after saline)

## gentamicin
Wistar rats [1]; G-50, 7 days
  plasma creatinine concentration: not modified
  proteinuria (daily urinary excretion of proteins): no proteinuria
  urinary NAG excretion: not modified
Wistar rats [1]; G-150, 7 days
  plasma creatinine concentration: profoundly altered
  proteinuria (daily urinary excretion of proteins): overt proteinuria
  urinary NAG excretion: very increased
Wistar rats [2]; rat, in vivo
  plasma concentration of BUN: No alterations
  plasma concentration of creatinine: No alterations
Wistar rats [3]
  day by which NAG excretion was increased: 4 days
  day by which creatinine clearance was altered: 4 days
  day by which plasma creatinine was increased: 4 days
[4]
  renal function (plasma creatinine, BUN, estimated GFR): within normal status

## uranyl nitrate
Wistar rats [2]; UN 0.5 mg/kg one week of rest after gentamicin 50 mg/kg/day regime
  plasma creatinine concentration: increase
Wistar rats [2]; UN 0.5 mg/kg simultaneously with gentamicin 50 mg/kg/day (co-treatment)
  plasma creatinine concentration: increase
Wistar rats [2]; single UN 0.5 mg/kg after G-50
  proteinuria (urinary excretion of proteins): proteinuria
Wistar rats [2]; single UN 0.5 mg/kg after G-50, day 11
  NAG excretion: increased
Wistar rats [2]; [6]
  plasma concentration of BUN: increases
  plasma concentration of creatinine: increases
Wistar rats [2]; [7]
  plasma concentration of BUN: No alterations
  plasma concentration of creatinine: No alterations
[5]
  urinary GM2AP (Western blot): high levels
